# The entries are a selection whose mix differs from that of the whole data set. Results filed as inconclusive are left out. The source made the active and inactive calls. Calls follow the shape of the dose curve; as a rule, active = well fitted inhibition curve with a large enough effect in the signal ratio, with a control signal flat (not every such curve was filed as active); inconclusive = small, poorly fitted or top-dose-only effect, or effect the other way, or a change in a side signal; inactive = flat fitted curve, though single readings scatter; the % refers to the signal ratio.
# Assay: qHTS Assay to Find Inhibitors of Chronic Active B-Cell Receptor Signaling;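 also: plate controls were basal doxycycline-induced cells for no effect and cells given 10 µM MG132 for full effect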
# Settings: ABC-DLBCL IkBa-CBG/CBR reporter, luminescence ratio (green luciferase fused to IkBa over red control in TMD8 lymphoma cells), 4 h; at 46.1 µM (top of the series)
# Description: NIH Molecular Libraries Probe Production Network [MLPCN] NIH Chemical Genomics Center [NCGC] MLPCN Grant: 1 R03 DA031086-01A1 PI Name: Dr. R. Eric Davis NCGC Assay Overview: Diffuse large B-cell lymphoma (DLBCL) is the most common category of non-Hodgkin lymphoma, with ~20,000 new cases per year in the United States. DLBCL should be regarded as a collection of different neoplasms. Microarray gene expression analysis has defined two principal types of DLBCL, named for their similarity to normal B cell stages or activation states: a germinal center B-cell (GCB) type, and an activated B-cell (ABC) type. In ABC-DLBCL, a constitutive high-level activity of the NF-kappaB family of transcription factors has been observed (1) and NF-kappaB target genes are more highly expressed in ABC primary tumors than in GCB tumors. Functional studies have shown a constitutive high-level activity of the IkappaB (inhibitor of kappa-B) kinase (IKK) complex. […] Further analysis of DLBCL primary tumors for NF-kappaB target gene expression imply that although CARD11 is required for constitutive IKK activity in all ABC-DLBCL lines, mutations in CARD11 may be the root cause of IKK activation only in lines or tumors with such mutations. In other words, CARD11 mutations may explain NF-kappaB activation in only 10% of ABC-DLBCL cases. […] This process has been termed 'chronic active BCR signaling' (CABS). The goal of this screen is to find small-molecule inhibitors of the CABS pathway found in ABC-DLBCL lines using a cell-based assay that measures IkappaBalpa stability, which has already been extensively validated in the OCI-Ly3 line (PubChem AID:445; REF: 4). […] The assay uses green (CBG68) and red (CBR) emitting beetle luciferases [Chroma-GloTM developed by Promega Corp.] where the green luciferase is fused to IkappaBalpha and the red luciferase is present in its native state. Both luciferase genes are stably present in the TMD8 human ABC DLBCL cell line, but their expression is under the control of tetracycline-inducible promoters. Following the addition of doxycycline to induce expression of the luciferases, the green luminescence in control cultures rises only slowly because the CBG fusion partner IkappaBalpha is targeted by IKK activity for rapid degradation. In contrast, green luminescence rises rapidly in the presence of proteasome inhibitors or IKK inhibitors. The rise in red luminescence of CBR is not affected by proteasome or IKK inhibitors, and serves as normalization for cell number and nonspecific effects. Compounds were screened as a concentration-titration series that ranged from 46 uM to 3 nM.
# NCGC Assay Protocol Summary: Cells were seeded in 1536-well plates at 5000 cells/4uL in IMDM medium containing 0.5% FBS, w/o phenol red, 1% penicillin/streptomycin. Then, 23 nL of compounds or DMSO were delivered to each well using a pin tool. One uL 20ng/ml doxycycline was then dispensed into white solid 1536-well plates and the plates were incubated at 37C/5% C02 in a cell incubator for 4 hrs. Then 4 uL luminescent substrate mix (in-house prepared: 150 mM Tris-Cl, pH 7.6, 3 mM MgCl2, 1% Triton X-100, 5 mM DTT, 0.2 mM CoA, 0.15 mM ATP, 5 mM D-luciferin, final concentrations) was added to each well. The plate was incubated at r.t. for 10-15 min. The plates were measured on a ViewLux plate reader for green luminescence (540/20 nm filter) and red luminescence (618/8 nm filter). The green and red luminescent signals were corrected for red and green luminescence filter overlap using previously determined filter calibration constants (determined using the procedure outlined in the Promega Technical Manual; REF 4). The %Activity was determined from the ratio of corrected green/red luminescent values. MG132 were used as control. […] Red luminescent %Activity was normalized to the difference between red luminesence in basal cells (0%Activity) and zero luminescence (-100% Activity). […]
row,SMILES,"activity change, negative = inhibition"
1,O=C(NC(Sc1ccncn1)C(Cl)(Cl)Cl)c1ccccc1 (stereo unspecified),inactive: -1%
2,CC(C)CC(=O)NC(Sc1ccc(Cl)cc1)C(Cl)(Cl)Cl (stereo unspecified),inactive: -17.4%
3,Clc1ccc(Cl)c(NC2=NCC(CBr)S2)c1 (stereo unspecified),inactive: -7.66%
4,COc1ccccc1OP(=O)(Nc1ccc(C)cn1)Oc1ccccc1OC,inactive: -6.37%
5,Cc1ccc(OP(=O)(Nc2nccs2)Oc2ccc(C)cc2)cc1,inactive: -2.26%
6,CN(C(=O)Cc1ccc(Cl)c(Cl)c1)[C@H]1CCCC[C@H]1N1CCCC1,inactive: -20.1%
7,Cc1ccc(N/C(=N/P(=O)(N2CCOCC2)N2CCOCC2)N2CCOCC2)cc1,inactive: 6.39%
8,NC(=O)c1cc([N+](=O)[O-])cc([N+](=O)[O-])c1N,inactive: -2.43%
9,Nc1cccc2ccc([As](=O)(O)O)cc12,inactive: -3.61%
10,CCN(N=Nc1nonc1N)c1nonc1N,inactive: 7.05%
11,CCOP(=O)(Nc1ccccc1)OCC,inactive: 0.936%
12,Cc1cc(SC(NC(=O)c2ccc(F)cc2)C(Cl)(Cl)Cl)ncn1 (stereo unspecified),inactive: 5.94%
13,CC(=O)Nc1ccc([As](=O)(O)O)cc1,inactive: -0.925%
14,O=C(O)CNc1ccc([As](=O)(O)O)cc1,inactive: 2.35%
15,O=[N+]([O-])c1cccc(NC2=NCC(CBr)S2)c1 (stereo unspecified),inactive: -0.999%
16,O=[N+]([O-])c1ncn(CCn2ncnc2[N+](=O)[O-])n1,inactive: -2.45%
17,CC(C)(C)C(=O)NC(Sc1ccncn1)C(Cl)(Cl)Cl (stereo unspecified),inactive: -4.24%
18,CC1CCN(C(=O)Oc2c(Cl)cc(Cl)c3cccnc23)CC1,inactive: 10.1%
19,CC(C)=N/N=C(\N)N[N+](=O)[O-],inactive: 4.44%

row,SMILES,"activity change, negative = inhibition"
1,CN(C)C(=O)OCCc1n(C)cc[n+]1C,inactive: -0.164%
2,CCN(/C(=N/P(=O)(N1CCOCC1)N1CCOCC1)N1CCOCC1)c1ccc(OC)cc1,inactive: 0.599%
3,Nc1ccc([As](=O)(O)c2ccc(N)cc2)cc1,inactive: -3.48%
4,Cc1ccc(NP(=O)(Oc2ccccc2)Oc2ccccc2)nc1,inactive: -10.5%
5,CC(=O)N1C2C3N(C(C)=O)C1C1N(C(C)=O)C(C(N1C(C)=O)N3C(C)=O)N2C(C)=O,inactive: 2.17%
6,O=[N+]([O-])c1cccc2n[nH]nc12,inactive: 9.8%
7,c1nnnn1CCn1cnnn1,inactive: -9.75%
8,O=P(Nc1nccs1)(c1ccccc1)c1ccccc1,inactive: -12.6%
9,CC(C)C(=O)NC(Sc1ccccc1)C(Cl)(Cl)Cl (stereo unspecified),inactive: -1.73%
10,O=C(OC1CN2CCC1CC2)c1cccc(Cl)c1 (stereo unspecified),inactive: 2.16%
11,Nc1ccc([As](=O)(O)c2ccc([N+](=O)[O-])cc2)cc1,inactive: -9.89%
12,O=[As](O)(c1ccccc1)c1ccc(O)cc1,inactive: 1.67%
13,O=[N+]([O-])c1ncn(CCn2cnc([N+](=O)[O-])n2)n1,inactive: -0.196%
14,O=P(Nc1nc2ccccc2s1)(c1ccccc1)c1ccccc1,inactive: 1.95%
15,C[C@H]1OP(=O)(Oc2ccccc2)[C@H](O)[C@H](O)[C@H]1N=[N+]=[N-] (stereo partly specified),inactive: 2.09%
16,CN(C)C1(CNC(=O)c2ccc(Cl)c(S(N)(=O)=O)c2)CCCCC1,inactive: -12.6%
17,O=P(Nc1ccccn1)(c1ccc(Br)cc1)c1ccc(Br)cc1,inactive: -1.22%
18,Cc1ccccc1OP(=O)(Nc1ccccn1)Oc1ccccc1C,inactive: -10.9%
19,CC(NC(=O)COC(=O)C(O)(c1ccccc1)c1ccccc1)c1ccccc1 (stereo unspecified),inactive: -6.74%

row,SMILES,"activity change, negative = inhibition"
1,CN(C)C(=O)Oc1noc2ccccc12,inactive: -1.79%
2,O=c1c2cc([N+](=O)[O-])ccc2[nH]c2c([N+](=O)[O-])cc([N+](=O)[O-])cc12,inactive: 11.8%
3,O=C(OC1CN2CCC1CC2)c1ccccc1 (stereo unspecified),inactive: -1.93%
4,CCC(=O)N1C2C3N(C(=O)CC)C1C1N(C(=O)CC)C(C(N1C(=O)CC)N3C(=O)CC)N2C(=O)CC,inactive: -3.43%
5,COC(=O)c1cc2c(s1)N=C(c1ccccc1)N(C)P2(=O)N1CCOCC1 (stereo unspecified),inactive: -0.86%
6,CC(=O)NC(SC(=S)N(CC(C)C)CC(C)C)C(Cl)(Cl)Cl (stereo unspecified),inactive: 1.57%
7,Cc1ccc(OP(=O)(Nc2ccccn2)Oc2ccc(C)cc2)cc1,inactive: -8.17%
8,c1ccc(-c2nn[nH]n2)c(-c2nn[nH]n2)c1,inactive: -27.7%
9,Cc1ccc(NP(=O)(Oc2cccc(C)c2)Oc2cccc(C)c2)nc1,inactive: -3.12%
10,CCOC(=O)NC(Sc1ccccc1)C(Cl)(Cl)Cl (stereo unspecified),inactive: -25.7%
11,CCNC(=S)/N=C(\N)N[N+](=O)[O-],inactive: 2.32%
12,CC(=O)Nc1ccc([As](=O)(O)O)c(O)c1,inactive: -0.689%
13,CC(=O)Nc1ccc(Oc2c([N+](=O)[O-])cc([N+](=O)[O-])cc2[N+](=O)[O-])cc1,inactive: 0.694%
14,Cc1ccccc1CN(C)C(=O)COC(=O)C(O)(c1ccccc1)c1ccccc1,inactive: -0.895%
15,C[C@@H]1C=CCP(=O)(Oc2ccccc2)O1 (stereo partly specified),inactive: 0.597%
16,CC(=O)c1ccc(N2CC2c2ccncc2)cc1 (stereo unspecified),inactive: 0.043%
17,CC(C)(C)C(=O)NC(Sc1ccccc1)C(Cl)(Cl)Cl (stereo unspecified),inactive: 1.49%
18,COc1cc(C2NCCC3(OCCO3)C2(C)C)cc(OC)c1OC (stereo unspecified),inactive: -4.29%

# From PubChem BioAssay AID493014 (National Center for Advancing Translational Sciences (NCATS), 2011)
